Laboratory results: patent US9376387B2 (priority 2013, dated 2016)

Test system: Peripheral Anionic Site (PAS) of AChE

In order of rising “Binding to the PAS measured by propidium iodide displacement” value:
1. COc1cc2c(cc1OC)C(=O)C(CC1C=CN(Cc3ccccc3C)C=C1C(C)=O)C2 (centres unmarked) [Compound 169, 2-[[3-acetyl-1-(o-tolylmethyl)-4H-pyridin-4-yl]methyl]-5,6-dimethoxy-indan-1-one]  17%
2. COc1cc2c(cc1OC)C(=O)C(CC1C=CN(Cc3cccc(Cl)c3)C=C1C(C)=O)C2 (centres unmarked) [Compound 77, 2-[[3-acetyl-1-[(3-chlorophenyl)methyl]-4H-pyridin-4-yl]methyl]-5,6-dimethoxy-indan-1-one]  18%
3. COc1cc2c(cc1OC)C(=O)C(Cc1cc[n+](Cc3ccccc3)cc1F)CC2.[Br-] (centres unmarked) [Compound 133, 2[(1-benzyl-3-fluoro-pyridin-1-ium-4-yl)methyl]-6,7-dimethoxy-tetralin-1-one bromide]  18%
4. COc1cc2c(cc1OC)C(=O)C(Cc1cc[n+](Cc3ccccc3C)cc1C(C)=O)C2.[Br-] (centres unmarked) [Compound 142, 2-[[3-acetyl-1-(o-tolylmethyl)pyridin-1-ium-4-yl]methyl]-5,6-dimethoxy-indan-1-one bromide]  18%
5. COc1ccc2c(c1)CCC(Cc1cc[n+](Cc3ccc(Cl)cc3)cc1C(C)=O)C2=O.[Br-] (centres unmarked) [Compound 131, 2-[[3-acetyl-1-[(4-chlorophenyl)methyl]pyridin-1-ium-4-yl]methyl]-6-methoxy-tetralin-1-one bromide]  19%
6. CC(=O)c1c[n+](Cc2ccccc2C)ccc1CC1Cc2cc3c(cc2C1=O)OCO3.[Br-] (centres unmarked) [Compound 139, 6-[[3-acetyl-1-(o-tolylmethyl)pyridin-1-ium-4-yl]methyl]-5,6-dihydrocyclopenta[f][1,3]benzodioxol-7-one bromide]  19%
7. COc1ccc2c(c1)CCC(Cc1cc[n+](Cc3cccc(C)c3)cc1Br)C2=O.[Br-] (centres unmarked) [Compound 118, 2-[[3-bromo-1-(m-tolylmethyl)pyridin-1-ium-4-yl]methyl]-6-methoxy-tetralin-1-one bromide]  19%
8. CC(=O)c1c[n+](Cc2ccccc2C)ccc1CC1Cc2cc(Cl)ccc2C1=O.[Br-] (centres unmarked) [Compound 136, 2-[[3-acetyl-1-(o-tolylmethyl)pyridin-1-ium-4-yl]methyl]-5-chloro-indan-1-one bromide]  20%
9. COc1ccc2c(c1)CCC(Cc1cc[n+](Cc3ccccc3)cc1Br)C2=O.[Br-] (centres unmarked) [Compound 117, 2-[(1-benzyl-3-bromo-pyridin-1-ium-4-yl)methyl]-6-methoxy-tetralin-1-one bromide]  20%
10. COc1cc2c(cc1OC)C(=O)C(Cc1cc[n+](Cc3ccccc3Cl)cc1Br)C2.[Br-] (centres unmarked) [Compound 140, 2-[[3-bromo-1-[(2-chlorophenyl)methyl]pyridin-1-ium-4-yl]methyl]-5,6-dimethoxy-indan-1-one bromide]  21%
11. COc1ccc2c(c1)CCC(Cc1cc[n+](Cc3ccc(F)cc3)cc1C(C)=O)C2=O.[Br-] (centres unmarked) [Compound 129, 2-[[3-acetyl-1-[(4-fluorophenyl)methyl]pyridin-1-ium-4-yl]methyl]-6-methoxy-tetralin-1-one bromide]  22%
12. COc1ccc2c(c1)CCC(Cc1cc[n+](Cc3cccc([N+](=O)[O-])c3)cc1C(C)=O)C2=O.[Br-] (centres unmarked) [Compound 123, 2-[[3-acetyl-1-[(3-nitrophenyl)methyl]pyridin-1-ium-4-yl]methyl]-6-methoxy-tetralin-1-one bromide]  22%
13. COc1ccc2c(c1)CCC(Cc1cc[n+](Cc3ccccc3)cc1C(C)=O)C2=O.[Cl-] (centres unmarked) [Compound 82, 2-[(3-acetyl-1-benzyl-pyridin-1-ium-4-yl)methyl]-6-methoxy-tetralin-1-one chloride]  22%
14. COc1ccc2c(c1)CCC(Cc1cc[n+](Cc3ccccc3)cc1C(C)=O)C2=O.[Br-] (centres unmarked) [Compound 119, 2-[(3-acetyl-1-benzyl-pyridin-1-ium-4-yl)methyl]-6-methoxy-tetralin-1-one bromide]  23%
15. COc1cc2c(cc1OC)C(=O)C(Cc1cc[n+](Cc3ccccc3)cc1C(C)=O)C2.[Br-] (centres unmarked) [Compound 33, 1-Benzyl-3-actyl-4-(5,6-dimethoxy-1-oxo-2,3-dihydro-1H-inden-2-yl)methyl pyridinium bromide]  23%
16. COc1ccc2c(c1)CC(Cc1cc[n+](Cc3ccccc3C)cc1C(C)=O)C2=O.[Br-] (centres unmarked) [Compound 138, 2-[[3-acetyl-1-(o-tolylmethyl)pyridin-1-ium-4-yl]methyl]-5-methoxy-indan-1-one bromide]  23%
17. COc1ccc2c(c1)CCC(Cc1cc[n+](Cc3ccc(C)cc3)cc1C(C)=O)C2=O.[Br-] (centres unmarked) [Compound 130, 2-[[3-acetyl-1-(p-tolylmethyl)pyridin-1-ium-4-yl]methyl]-6-methoxy-tetralin-1-one bromide]  23%
18. COc1ccc2c(c1)CCC(Cc1cc[n+](Cc3ccccc3[N+](=O)[O-])cc1C(C)=O)C2=O.[Br-] (centres unmarked) [Compound 125, 2-[[3-acetyl-1-[(2-nitrophenyl)methyl]pyridin-1-ium-4-yl]methyl]-6-methoxy-tetralin-1-one bromide]  23%
19. COc1cc2c(cc1OC)C(=O)/C(=C/c1cc[n+](Cc3ccccc3)cc1C(C)=O)C2 [Compound 149, (2E)-2-[(3-actyl-1-benzyl-pyridin-1-ium-4-yl)methylene]-5,6-dimethoxy-indan-1-one bromide]  23%
20. COc1cc2c(cc1OC)C(=O)C(Cc1cc[n+](Cc3ccccc3)cc1C(C)=O)CC2.[Br-] (centres unmarked) [Compound 132, 2-[(3-actyl-1-benzyl-pyridin-1-ium-4-yl)methyl]-6,7-dimethoxy-tetralin-1-one bromide]  24%
21. COc1ccc2c(c1)CCC(Cc1cc[n+](Cc3cccc(C(F)(F)F)c3)cc1C(C)=O)C2=O.[Br-] (centres unmarked) [Compound 124, 2-[[3-acetyl-1-[[3-(trifluoromethyl)phenyl]methyl]pyridin-1-ium-4-yl]methyl]-6-methoxy-tetralin-1-one bromide]  25%
22. COc1ccc2c(c1)CCC(Cc1cc[n+](Cc3cccc(C)c3)cc1C(C)=O)C2=O.[Br-] (centres unmarked) [Compound 120, 2-[[3-acetyl-1-(m-tolylmethyl)pyridin-1-ium-4-yl]methyl]-6-methoxy-tetralin-1-one bromide]  27%

COc1cc2c(cc1OC)C(=O)C(Cc1cc[n+](Cc3ccccc3)cc1C(C)=O)C2.[Br-] (centres unmarked) [Compound 33, 1-Benzyl-3-actyl-4-(5,6-dimethoxy-1-oxo-2,3-dihydro-1H-inden-2-yl)methyl pyridinium bromide] was tested, and the “Binding to the PAS: % of Propidium Iodide Displacement” value was 23%.
